Laboratory results taken from paper PMC7253423, “Quassinoid analogs with enhanced efficacy for treatment of hematologic malignancies target the PI3Kγ isoform” (Communications Biology, 2020).

Assays:
Type in all cases: cell-based, human
[1] = system: LCL1 cells; assay: Cell viability assay (CellTiter-Glo luminescence)
Experimental: On the next day, Brusatol or associated analogs were added once to the cells without media change. After treatment, the cells were incubated with 100 μl buffer for 10 min at room temperature following the instructions of CellTiter-Glo kit (Promega, Madison, WI). Luminescence was detected using a multi-mode reader Cytation 5 (BioTek, Winooski, VT). Brusatol or its analogs are dissolved in 100% ethanol and diluted in 1 × PBS for treatment. Two independent experiments done in duplicates were performed.

[2] = system: NB-4 cells; assay: Cell viability assay (CellTiter-Glo luminescence); conditions: Fig 3a
Experimental: (§1) 5000 cells as indicated were cultured in 96-well plate with 100 μl of media. On the next day, Brusatol or associated analogs were added once to the cells without media change. After treatment, the cells were incubated with 100 μl buffer for 10 min at room temperature following the instructions of CellTiter-Glo kit (Promega, Madison, WI). Luminescence was detected using a multi-mode reader Cytation 5 (BioTek, Winooski, VT). Brusatol or its analogs are dissolved in 100% ethanol and diluted in 1 × PBS for treatment. Two independent experiments done in duplicates were performed.

[3] = system: BJAB cells; assay: Cell viability assay (CellTiter-Glo luminescence); conditions: relative to Control, Fig 1d / Fig 5a
Experimental: as §1

[4] = system: Raji cells; assay: Cell viability assay (CellTiter-Glo luminescence); conditions: Raji; for Relative cell viability: Fig 1c; for relative cell viability (Fig 6f), replicates: fraction of 0 μM control
Experimental: as §1

[5] = system: LCL2 cells; assay: Cell viability assay (CellTiter-Glo luminescence); conditions: LCL2, relative to Control, Fig 1d / Fig 5a
Experimental: as §1

[6] = system: Raji cells; assay: Real-time PCR, mRNA expression; conditions: Fig 2f, experiments 1st-4th
Experimental: (§2) Real-time PCR experiments were performed as previously described. The experiments were performed in triplicate.

[7] = system: LCL1 cells; assay: Real-time PCR, mRNA expression; conditions: Fig 2g
Experimental: as §2

In the case of Brusatol, the Relative cell viability ([1]; LCL1, Con. 0.000244141 μM, Fig 1c) is reported as 1.239 and 1.152, the Relative cell viability ([1]; LCL1, Con. 0.000976563 μM, Fig 1c) is reported as 1.178 and 1.161 and the Relative cell viability ([1]; LCL1, Con. 0.00390625 μM, Fig 1c) is reported as 0.4296 and 0.405. For the same substance, the Relative cell viability ([1]; LCL1, Con. 0.015625 μM, Fig 1c) was 0.2452 and 0.2178, the Relative cell viability ([1]; LCL1, Con. 0.0625 μM, Fig 1c) was 0.1961 and 0.1943 and the Relative cell viability ([1]; LCL1, Con. 0.25 μM, Fig 1c) was 0.2021 and 0.1842. For the same substance, the Relative cell viability ([1]; LCL1, Con. 1 μM, Fig 1c) was 0.2333 and 0.2062, the Relative cell viability ([1]; LCL1, relative to Control, Fig 1d / Fig 5a) was 0.1749 and 0.2474 and the Relative cell viability ([2]; NB-4, Con. 0.000244141 μM) was 1.057 and 0.6748. For the same substance, the Relative cell viability ([2]; NB-4, Con. 0.000976563 μM) was 0.9903 and 0.9953, the Relative cell viability ([2]; NB-4, Con. 0.00390625 μM) was 0.9731 and 0.8212 and the Relative cell viability ([2]; NB-4, Con. 0.015625 μM) was 0.09728 and 0.08892. The Relative cell viability ([2]; NB-4, Con. 0.0625 μM) was 0.04557 and 0.04445, the Relative cell viability ([2]; NB-4, Con. 0.25 μM) was 0.0343 and 0.02988 and the Relative cell viability ([2]; NB-4, Con. 1 μM) was 0.03379 and 0.02721. The Relative cell viability [3] was 0.6687 and 0.5708, the Relative cell viability ([4]; Con. 0.000244141 μM) was 1.102 and 1.085 and the Relative cell viability ([4]; Con. 0.000976563 μM) was 0.9852 and 1.066. The “relative cell viability (Fig 6f), replicates” value ([4]; Con. 0.00244141 μM) was 1.11 and 0.9877, the Relative cell viability ([4]; Con. 0.00390625 μM) was 0.6796 and 0.8115 and the “relative cell viability (Fig 6f), replicates” value ([4]; Con. 0.00976562 μM) was 1.052 and 1.015. The Relative cell viability ([4]; Con. 0.015625 μM) was 0.1834 and 0.2298, the “relative cell viability (Fig 6f), replicates” value ([4]; Con. 0.0390625 μM) was 0.8377 and 0.6422 and the Relative cell viability ([4]; Con. 0.0625 μM) was 0.0668 and 0.05639. The “relative cell viability (Fig 6f), replicates” value ([4]; Con. 0.15625 μM) was 0.2334 and 0.208, the Relative cell viability ([4]; Con. 0.25 μM) was 0.04518 and 0.0472 and the “relative cell viability (Fig 6f), replicates” value ([4]; Con. 0.625 μM) was 0.07627 and 0.07616. For the same substance, the Relative cell viability ([4]; Con. 1 μM) was 0.0408 and 0.04055, the “relative cell viability (Fig 6f), replicates” value ([4]; Con. 2.5 μM) was 0.0482 and 0.0454 and the “relative cell viability (Fig 6f), replicates” value ([4]; Con. 10 μM) was 0.04976 and 0.05217. For the same substance, the Relative cell viability [5] was 0.2781 and 0.2516, the “FOXO3 mRNA expression relative to Control” value [6] was 0.8069 and 1.138 and 1.051 and 0.8646 and the “MYC mRNA expression relative to Control” value [6] was 2.969 and 1.724. For the same substance, the “NME2 mRNA expression relative to Control” value [6] was 0.459 and 0.8677 and 0.7393 and 0.5689, the “TP73 mRNA expression relative to Control” value [6] was 1.114 and 1.008 and 1.162 and the “AKT1 mRNA expression relative to Control” value [7] was 0.6046. For the same substance, the “ATF3 mRNA expression relative to Control” value [7] was 0.5899, the “PIK3C2B mRNA expression relative to Control” value [7] was 0.4852 and the “PIK3CG mRNA expression relative to Control” value [7] was 0.4647.

Several values for one entry are separate records, joined by “and”; a condition that tells them apart may be missing. Equal values may be shown once.
